Literature values as cited in patent US7838561B2, “Method for preventing or treating cardiac hypertrophy” (Wisconsin Alumni Research Foundation, priority 2004, dated 2010).

Tested on: RARs

- Receptor Specificity: RARαβγ
Compound: Cc1ccc(C2=CCC(C)(C)c3ccc(C(=O)Nc4ccc(C(=O)O)cc4)cc32)cc1
